According to PubChem BioAssay AID624037 (The Scripps Research Institute Molecular Screening Center, 2012):
The entries are a selection whose mix differs from that of the whole data set. Some of these compounds have results that are not shown, active ones among them. Activity calls are given as the source filed them.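 The calls were made as follows: active = activation above the run's mean over test compounds plus 3 SD (cut at about 23% in these data); inactive = the rest.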

Amino acid sequences for entries named in this document (tags omitted).
UniProt P08912, whole entry: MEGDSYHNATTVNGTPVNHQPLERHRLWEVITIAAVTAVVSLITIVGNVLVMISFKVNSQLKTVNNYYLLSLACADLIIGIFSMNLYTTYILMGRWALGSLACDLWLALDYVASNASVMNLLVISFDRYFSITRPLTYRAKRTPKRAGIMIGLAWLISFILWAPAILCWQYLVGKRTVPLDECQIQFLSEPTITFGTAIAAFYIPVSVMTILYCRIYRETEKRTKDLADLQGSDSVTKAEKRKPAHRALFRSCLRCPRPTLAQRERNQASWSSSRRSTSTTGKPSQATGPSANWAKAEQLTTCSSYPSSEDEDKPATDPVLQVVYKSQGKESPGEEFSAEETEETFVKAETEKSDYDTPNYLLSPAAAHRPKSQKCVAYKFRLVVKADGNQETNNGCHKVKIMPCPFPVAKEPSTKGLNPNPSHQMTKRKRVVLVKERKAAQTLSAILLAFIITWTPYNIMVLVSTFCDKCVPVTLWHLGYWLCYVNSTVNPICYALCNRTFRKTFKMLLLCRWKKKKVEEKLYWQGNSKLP

Each compound was assayed against Muscarinic acetylcholine receptor M5 (Homo sapiens) (UniProt P08912) (assay: human M5 muscarinic receptor agonists, primary screen, CHO-K1 cells, Fluo-8 calcium fluorescence (AID 624037;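 also: signal is peak over basal fluorescence ratio across the kinetic read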)). Conditions: CHO-K1 hM5 cells, at 3 µM, hits give high values, 0% DMSO wells, 100% maximal acetylcholine response.
In the case of `O=C(OC1CN2CCC1CC2)C(CO)(c1ccccc1)c1ccccc1` (stereo not drawn), the activation is reported as inactive: -9.12%. In the case of `CN(C)c1cccc(C(=O)NCC2(N(C)C)CCCCC2)c1`, the activation is reported as inactive: -5.6%. In the case of `O=C(OCCN1CCCC1)C(O)(c1ccccc1)c1ccccc1`, the activation is reported as inactive: -12.4%. In the case of `CC(C)Oc1ccc(C(=O)NCC2(N(C)C)CCCCC2)cc1`, the activation is reported as inactive: -3.11%. In the case of `COc1ccc(Br)c(C(=O)NCC2(N3CCCCC3)CCCCC2)c1`, the activation is reported as inactive: -1.82%. `C=C(C)C#CC(O)(C(=O)OC1CCN(C)CC1)c1ccccc1` (stereo not drawn) was tested, and the activation was inactive: -11.5%. With `COc1cc(C(=O)NCC2(N(C)C)CCCCC2)c([N+](=O)[O-])cc1OC` the activation was inactive: -3.42%. For `CN(C)C1(CNC(=O)c2ccc(Br)cc2)CCCCC1`, the activation was inactive: -1.92%. With `O=C(NCC1(N2CCCCC2)CCCCC1)c1cccc(Cl)c1` the activation was inactive: -3.92%. In the case of `COc1ccc(Cl)cc1C(=O)NCC1(N(C)C)CCCCC1`, the activation is reported as inactive: -3.67%. In the case of `COc1cccc(C(=O)NCC2(N3CCCCC3)CCCCC2)c1`, the activation is reported as inactive: 3.34%. For `CN(C)c1ccc(C(=O)NCC2(N(C)C)CCCCC2)cc1`, the activation was inactive: -1.38%. In the case of `Cc1ccccc1C(=O)NCC1(N2CCCCC2)CCCCC1`, the activation is reported as inactive: -3.2%. With `O=C(NCC1(N2CCCCC2)CCCCC1)c1cccc(Br)c1` the activation was inactive: -3.97%. For `Cc1cc(C(=O)NCC2(N3CCCCC3)CCCCC2)ccc1[N+](=O)[O-]`, the activation was inactive: -3.43%. With `COc1ccc(C(=O)NCC2(N(C)C)CCCCC2)cc1` the activation was inactive: -1.87%. With `O=C(NCC1(N2CCCCC2)CCCCC1)c1cc(F)c(F)cc1Cl` the activation was inactive: -3.6%. In the case of `C=CCN1CCN(CCOC(=O)C(O)(c2ccccc2)c2ccccc2)CC1`, the activation is reported as inactive: -10.6%. In the case of `O=C(NCC1(N2CCCCC2)CCCCC1)c1cc([N+](=O)[O-])ccc1Cl`, the activation is reported as inactive: -5.18%. `Cc1ccc(C(=O)NCC2(N3CCCCC3)CCCCC2)cc1` was tested, and the activation was inactive: -4.2%. In the case of `CC(C)N1C(=O)CC2(CCN(CCOC(=O)C(O)(c3ccccc3)c3ccccc3)CC2)C1=O`, the activation is reported as inactive: -4.21%. With `COc1cc(SC)ccc1C(=O)NCC1(N(C)C)CCCCC1` the activation was inactive: -3.97%. With `CCN(CC)CC(C)C(C)OC(=O)C(O)(c1ccccc1)c1ccccc1` (stereo not drawn) the activation was inactive: -16%.
